What was measured:
[1] = tested on: spontaneously bursting LHb neurons; assay: Spontaneous bursts of LHb neurons in brain slices, bath application; assay type: cell-based
[2] = tested on: lateral habenular neurons; assay: Hyperpolarization-triggered rebound bursts in LHb brain slices; assay type: cell-based
[3] = mibefradil 10 μM bath application

| SMILES | spontaneous bursts ([1]; ketamine 100 μM bath applied) | probability of neuron hyperpolarization-induced burst ([2]; ketamine 100 μM) | amplitude of plateau potential of spontaneous bursts [1, 3] | bursting probability of spontaneous bursts [1, 3] | probability of neuron hyperpolarization-induced burst ([2]; mibefradil 10 μM) |
| --- | --- | --- | --- | --- | --- |
| CNC1(c2ccccc2Cl)CCCCC1=O (centres unmarked) [ketamine] | almost completely eliminated spontaneous bursts | 0.19 | – | – | – |
| COCC(=O)O[C@]1(CCN(C)CCCc2nc3ccccc3[nH]2)CCc2cc(F)ccc2[C@@H]1C(C)C [mibefradil] | – | – | reduced the amplitude of plateau potential | effectively decreased the bursting probability | 0.05 |

Source: US11471428B2, “Method and pharmaceutical composition for treating depression” (ZHEJIANG UNIVERSITY, priority 2017, dated 2022)
